Values quoted from earlier work, collected in publication PMC3930474 (Journal of controlled release : official journal of the …, 2013).

Conditions: mouse albumin in mouse; cited from earlier work

In the case of “mouse albumin: mouse serum albumin, literature half-life comparison”, the plasma half-life is given as 1.2 days.
